Chains of the proteins cited; added tags and fusions are not shown.
UniProt P79350, whole entry: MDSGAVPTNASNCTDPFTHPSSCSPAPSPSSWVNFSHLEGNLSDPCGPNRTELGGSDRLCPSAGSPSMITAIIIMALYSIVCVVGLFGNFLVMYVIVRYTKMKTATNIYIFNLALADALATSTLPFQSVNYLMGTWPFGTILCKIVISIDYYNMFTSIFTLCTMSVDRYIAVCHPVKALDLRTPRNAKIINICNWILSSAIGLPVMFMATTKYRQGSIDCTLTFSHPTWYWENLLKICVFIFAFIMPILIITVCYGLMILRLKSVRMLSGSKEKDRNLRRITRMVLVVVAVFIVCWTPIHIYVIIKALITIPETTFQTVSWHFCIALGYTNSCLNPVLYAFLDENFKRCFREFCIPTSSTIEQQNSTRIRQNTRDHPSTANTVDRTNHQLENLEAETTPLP

In BindingDB's records for doi:10.1016/j.ejphar.2004.03.050 (Memorial Sloan-Kettering Cancer Center, 2004):

Molecular target: Mu-type opioid receptor (Bos taurus, UniProt P79350)

CN1CCC23c4c5ccc(O)c4OC2C(O)CCC3C1C5 (stereo unspecified) [CAS_509-60-4]
Ki: 1.3 nM
